Target: HAT domain of human p300 (Homo sapiens, UniProt Q09472)
Assay: p300 HAT inhibition assay (3H-Ac-CoA, histone H3 (1-21) peptide)
Type: biochemical

The chains behind the UniProt entries cited, without tags or fusion partners. Residues count along the entry.
UniProt Q09472, 1195-1673 limits assumed: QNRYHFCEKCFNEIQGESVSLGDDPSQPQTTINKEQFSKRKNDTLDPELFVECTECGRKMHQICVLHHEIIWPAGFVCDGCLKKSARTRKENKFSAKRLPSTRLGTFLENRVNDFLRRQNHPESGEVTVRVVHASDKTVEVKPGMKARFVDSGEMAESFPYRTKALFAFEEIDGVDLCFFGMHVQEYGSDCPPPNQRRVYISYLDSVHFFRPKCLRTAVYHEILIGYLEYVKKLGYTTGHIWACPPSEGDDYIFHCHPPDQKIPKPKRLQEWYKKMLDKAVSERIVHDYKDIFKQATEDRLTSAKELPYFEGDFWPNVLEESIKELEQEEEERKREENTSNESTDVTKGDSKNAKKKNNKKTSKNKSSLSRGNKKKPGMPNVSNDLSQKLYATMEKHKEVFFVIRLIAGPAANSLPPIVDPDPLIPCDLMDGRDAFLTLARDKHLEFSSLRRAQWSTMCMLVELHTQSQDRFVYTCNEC

activity reduction relative to compound 12 (p300 HAT): ~ 8 fold
IC50 (read-out: IC50 against p300 HAT): 5 µM
Structure (SMILES): CC(C)(C)c1ccc(-c2cc(CNC3CCNCC3)sc2-c2ccc(C(C)(C)C)cc2)cc1

Source: patent US20230167101A1, “NOVEL INHIBITORS OF HISTONE […] P300/CBP FOR CANCER THERAPY” (BAYLOR COLLEGE OF MEDICINE, priority 2020, published 2023)
